Values quoted from earlier work, collected in article PMC6107785, “Thiodipeptides targeting the intestinal oligopeptide transporter as a general approach to improving oral drug delivery” (European Journal of Medicinal Chemistry, 2018).

Set-up: method as in PMID 2109643
Conditions: ibuprofen 6 mg kg^−1 oral, rat; reference value ref 26; cited from earlier work

## CC(C)Cc1ccc(C(C)C(=O)O)cc1 (stereo not shown) [Ibuprofen]
  Relative F: 100 [26] %
